Source: paper PMC5761213 (Journal of Pharmaceutical Analysis, 2014)

Protein sequences, listed by entry. Tags and fused reporters are not part of them.
UniProt P11712, whole entry: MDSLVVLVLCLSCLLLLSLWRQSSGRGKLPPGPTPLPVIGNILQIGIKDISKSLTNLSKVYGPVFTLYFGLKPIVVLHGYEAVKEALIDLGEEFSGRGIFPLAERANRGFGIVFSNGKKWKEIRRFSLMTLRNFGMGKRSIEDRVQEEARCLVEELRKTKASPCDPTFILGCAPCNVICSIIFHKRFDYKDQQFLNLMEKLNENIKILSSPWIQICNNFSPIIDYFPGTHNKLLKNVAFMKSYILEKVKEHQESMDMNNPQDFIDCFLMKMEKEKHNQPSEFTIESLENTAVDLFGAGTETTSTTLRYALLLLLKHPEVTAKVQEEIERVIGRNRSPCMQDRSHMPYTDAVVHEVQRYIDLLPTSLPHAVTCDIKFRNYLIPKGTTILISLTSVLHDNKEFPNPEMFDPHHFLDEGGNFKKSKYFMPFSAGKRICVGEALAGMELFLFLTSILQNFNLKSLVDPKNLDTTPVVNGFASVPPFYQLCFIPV

Target: CYP2C9 (Homo sapiens, UniProt P11712)
Assay: Effect of DMSO on CYP activity in human liver microsomes
Type: in vitro ADME

Question: For `C[S+](C)[O-]` [DMSO], which “reduction of metabolite formation” value (0.1% DMSO) is on record?
Answer: The value was “no significant reduction”.

Question: And the “CYP activity reduced by” value (0.5% DMSO, concentration set for the cocktail assay)?
Answer: Its value is 6%.

Question: What about the “effect of DMSO on CYP activity” value (DMSO up to 1%) of the same compound?
Answer: Its value is “not significantly affected”.
